Source: ChEMBL document CHEMBL1833948, “Structural determinants of opioid and NOP receptor activity in derivatives of buprenorphine” (2011)

Amino acid sequences for entries named in this document (tags omitted).
UniProt P41143, whole entry, looked up: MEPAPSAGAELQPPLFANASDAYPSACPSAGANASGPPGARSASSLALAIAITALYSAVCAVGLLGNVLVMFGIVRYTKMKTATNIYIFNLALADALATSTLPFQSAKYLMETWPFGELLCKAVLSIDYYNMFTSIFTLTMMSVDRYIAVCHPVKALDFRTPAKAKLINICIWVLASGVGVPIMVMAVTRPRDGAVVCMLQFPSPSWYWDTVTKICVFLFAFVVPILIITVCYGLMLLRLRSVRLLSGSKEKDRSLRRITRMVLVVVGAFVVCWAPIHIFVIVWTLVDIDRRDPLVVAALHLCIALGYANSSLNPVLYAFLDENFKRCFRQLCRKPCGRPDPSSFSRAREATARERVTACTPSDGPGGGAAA

Species on record: Homo sapiens
Test: Selectivity ratio of Ki for human MOP receptor to Ki for human NOP receptor

| Compound | Ratio Ki |
| --- | --- |
| CO[C@]12CC[C@@]3(C[C@@H]1[C@@](C)(O)c1ccc(C(C)(C)C)cc1)[C@H]1Cc4ccc(O)c5c4[C@@]3(CCN1CC1CC1)[C@H]2O5 | 50 |
| CC1(C)SSC(C)(C)[C@@H](NC(=O)[C@@H](N)Cc2ccc(O)cc2)C(=O)NCC(=O)N[C@@H](Cc2ccccc2)C(=O)N[C@H]1C(=O)O | 50 |
| CO[C@]12CC[C@@]3(C[C@@H]1[C@@](C)(O)C(C)(C)C)[C@H]1Cc4cc(Br)c(O)c5c4[C@@]3(CCN1CC1CC1)[C@H]2O5 | 50 |
| CO[C@]12CC[C@@]3(C[C@@H]1[C@@](C)(O)C(C)(C)C)[C@H]1Cc4c(Cl)cc(O)c5c4[C@@]3(CCN1CC1CC1)[C@H]2O5 | 50 |
| CCC(C)(C)[C@](C)(O)[C@H]1C[C@@]23CC[C@]1(OC)[C@@H]1Oc4c(O)ccc5c4[C@@]12CCN(CC1CC1)[C@@H]3C5 | 50 |
| CO[C@]12CC[C@@]3(C[C@@H]1[C@@](C)(O)C(C)(C)C)[C@H]1Cc4c(Br)cc(O)c5c4[C@@]3(CCN1CC1CC1)[C@H]2O5 | 50 |
| CN(C(=O)Cc1ccccc1)[C@H]1CC[C@@]2(CCCO2)C[C@@H]1N1CCCC1 | 50 |
| CO[C@]12CC[C@@]3(C[C@@H]1[C@](C)(O)CC(C)(C)C)[C@H]1Cc4ccc(O)c5c4[C@@]3(CCN1CC1CC1)[C@H]2O5 | 50 |
| C[C@@H](NC(=O)[C@@H](N)Cc1ccc(O)cc1)C(=O)NCC(=O)N(C)[C@@H](Cc1ccccc1)C(=O)NCCO | 50 |

Biological target: Delta-type opioid receptor (Homo sapiens) (UniProt P41143)
Test: Partial agonist activity at human DOP receptor expressed in CHO cells assessed as maximal stimulation of [35S]GTPgammaS binding after 60 mins by scintillation counting relative to DPDPE

| Compound | Activity [%] |
| --- | --- |
| CO[C@@]12CC[C@@]3(C[C@@H]1[C@](C)(O)C(C)(C)C)[C@H]1Cc4ccc(O)c5c4[C@@]3(CCN1CC1CC1)[C@H]2O5 | 21 |

Species on record: Homo sapiens
Test: Selectivity ratio of Ki for human NOP receptor to Ki for human MOP receptor

| Compound | Ratio Ki |
| --- | --- |
| CO[C@]12CC[C@@]3(C[C@@H]1[C@](C)(O)CC(C)(C)C)[C@H]1Cc4ccc(O)c5c4[C@@]3(CCN1CC1CC1)[C@H]2O5 | 10 |
